A selection: hits, their analogues and other compounds. The true share with any hit is near 1.2%.
Cneo AK release: Cryptococcus neoformans lysis via adenylate kinase release | C. neoformans lysis, adenylate kinase release luminescence, 4 h; normalised: neutral wells 0, clomiphene wells 100 | lysis activity, % at 15 µM | 0.2% of 360,000 active | AID 651654;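 active = mean lysis activity across replicates of at least 80%, whatever share of replicates individually reach that level; inactive = mean lysis activity below 80%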
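Material – Cryptococcus neoformans yeast cells · Quantity – 5 × 10^6 yeast cells/mL · Buffer or medium – YPD medium · Compound – single dose · Timing – 4 h static compound exposure, 37 °C, read 1 h post-reagent · Signal – adenylate kinase release luminescence · Read-out basis – lysis from increased AK signal · Benchmarks – Clomiphene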
Yeast UUG start: yeast start codon fidelity modulation. S. cerevisiae UUG-firefly luciferase reporter, luminescence/redox ratio. activity score, % at 18.7 µM. 0.13% of 350,000 active;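 active = replicate mean at a twofold rise or more, about +100% in these data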;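 also: firefly luciferase made from a UUG start codon reports start codon fidelity; reporter light over untreated wells divided by growth signal over untreated wells; some hits fall short of that in this replicate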
Statin myotox sup: suppressors of simvastatin-induced myotoxicity in C2C12 myotubes; ATP luminescence, 48 h; scaled: DMSO 0, geranylgeraniol control 100; rescue of ATP level, % at 7.49 µM; 0.78% of 330,000 active;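 active = mean ATP rescue above about 67%, or every replicate alone reaching that limit, limit read from the data, passing the limit was not always enough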;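 also: myotubes were challenged with 10 µM simvastatin during compound exposure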
N-glyco inh: N-linked glycosylation inhibition; D54 ERlucT glycosylation luciferase reporter, 24 h; percent of 100 nM tunicamycin response; reporter increase, % at 12.5 µM; 0.23% of 360,000 active; AID 588692;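 active = mean luciferase reporter signal, scaled so untreated is 0 and the glycosylation-blocking control 100, at or above a set limit in every replicate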;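 also: luciferase carries N-glycosylation sites so blocking glycosylation raises the light; 0% = median of neutral control wells and 100% = median of 100 nM tunicamycin wells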
miR122 inh: miR-122 inhibition in Huh7 cells; Huh7 miR-122 Renilla luciferase sensor, 48 h; neutral wells = 0, positive control = 100; 0.3% of 340,000 active; activation (reporter increase), % at 12.5 µM;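 active = mean replicate activation score at least 90 and every replicate individually at or above 90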;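 also: higher luciferase means less miR-122 activity so hits act as miR-122 inhibitors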
The depositor's hits bear a star; . = not tested or not shown; [ ] = dose if it differs, or a comment.

molecule | Yeast UUG start | miR122 inh | N-glyco inh | Cneo AK release | Statin myotox sup
COc1cc(-c2noc(C)c2-c2ccc3[nH]ccc3c2)cc(OC)c1OC | -7 | . | 48* | 0 | -45
CC=Cc1ccc2n(c1=O)C[C@@H]1[C@@H](CO)[C@H](C(=O)NCCN3CCCC3)N(C(=O)NC(C)C)[C@H]21 (mixture of isomers) | . | . | . | -1 | -15
CCn1c(N)c(C(=O)N2CCOCC2)sc1=S | -18 | 3 | 2 | -1 | 129*
O=C(CN1C2=NCCCN2c2ccccc21)c1ccc([N+](=O)[O-])cc1 | . | . | 24 | . | .
CC1CCN(C(=O)C2CC(c3ccc(F)cc3)=NO2)CC1 (stereo not drawn) | -16 | . | -1 | 1 | 7
CC1CCCC(C)N1C(=O)C1CC(c2ccc(F)cc2)=NO1 (stereo not drawn) | -14 | -1 | -2 | 1 | 92*
Cc1cc(C)c(C#N)c(N2CCCC(C(N)=O)C2)n1 (stereo not drawn) | 2 | -16 | 0 | 1 | 170*
Cc1sc2ncn(CC(=O)N(CC(=O)NC3CCCC3)Cc3cccs3)c(=O)c2c1C | 5 | 123* | 0 | -1 | 4

Following part.
molecule | Yeast UUG start | miR122 inh | N-glyco inh | Cneo AK release | Statin myotox sup
Cc1sc2ncn(CC(=O)NC3CCCCC3)c(=O)c2c1C | -6 | . | 0 | 1 | -7
C[C@@H]1CN([C@H](C)CO)C(=O)Cc2cc(NS(=O)(=O)c3cn(C)cn3)ccc2O[C@H]1CN(C)CC1CC1 | -8 | 7[16.7 µM] | . | -1 | 7
COc1ccc(-c2cc(C#N)nc(Cl)n2)cc1 | . | . | 8 | . | .
CCN(CC)c1nc(C#N)cc(-c2ccc(OC)cc2)n1 | -9 | 13 | 17 | 0 | 109*
CCN(Cc1ccccc1)C(=O)c1[nH]c2ccc(OC)cc2c1C | 4 | 125* | 1 | -3 | 8
NS(=O)(=O)c1ccc(NC(=O)c2cccc3cc4ccccc4nc23)cc1 | . | . | 62* | . | .
C[C@@H]1CN([C@@H](C)CO)C(=O)Cc2cc(NC(=O)CCC(F)(F)F)ccc2O[C@H]1CN(C)Cc1ccc(Oc2ccccc2)cc1 | 14 | -15[16.7 µM] | . | 0 | 87*
COc1ccc(CN(C)C[C@@H]2Oc3ccc(NC(=O)CCC(F)(F)F)cc3CC(=O)N([C@H](C)CO)C[C@@H]2C)cc1 | -1 | -2[16.7 µM] | . | 1 | 9

(continued)
molecule | Yeast UUG start | miR122 inh | N-glyco inh | Cneo AK release | Statin myotox sup
COc1ccc(CN(C)C[C@@H]2Oc3ccc(NC(=O)CCC(F)(F)F)cc3CC(=O)N([C@H](C)CO)C[C@H]2C)cc1 | 3 | 1[16.7 µM] | . | 2 | 102*
C[C@H](CO)N1C[C@H](C)[C@H](CN(C)Cc2ccncc2)Oc2ccc(NC(=O)CCC(F)(F)F)cc2C1=O | 1 | 5[16.7 µM] | . | 149* | -16
COc1ccccc1-c1ccc2c(c1)O[C@@H](CN(C)Cc1ccc3c(c1)OCO3)[C@@H](C)CN([C@@H](C)CO)S2(=O)=O | -2 | 5[16.7 µM] | . | 6 | -65
C[C@@H]1CCCCO[C@H](CN(C)Cc2ccc3c(c2)OCO3)[C@H](C)CN([C@H](C)CO)C(=O)c2cc(NC(=O)c3ccccc3)ccc2O1 | 17 | -6[16.7 µM] | . | 1 | .
CCOC(=O)N(C)c1ccc(C(O)(C(F)(F)F)C(F)(F)F)cc1 | 86 | 0 | 1 | 2 | 71*
CC(=O)N(C)c1ccc(C(O)(C(F)(F)F)C(F)(F)F)cc1 | . | 5 | 4 | . | .
COc1ccccc1-c1nnc(SCC(=O)NC2CCCCC2)o1 | -14 | 1 | 0 | 1 | 7
Cc1ccccc1-c1nnc(SCC(=O)NC2CCCCC2)o1 | . | 4 | 0 | . | 78*

Look-ups from the results shown:
Reading for C[C@@H]1CCCCO[C@H](CN(C)Cc2ccc3c(c2)OCO3)[C@H](C)CN([C@H](C)CO)C(=O)c2cc(NC(=O)c3ccccc3)ccc2O1 under Yeast UUG start: 17
Reading for COc1ccccc1-c1nnc(SCC(=O)NC2CCCCC2)o1 under Cneo AK release: 1
Reading for Cc1ccccc1-c1nnc(SCC(=O)NC2CCCCC2)o1 under N-glyco inh: 0
Reading for CCOC(=O)N(C)c1ccc(C(O)(C(F)(F)F)C(F)(F)F)cc1 under Cneo AK release: 2
Reading for COc1ccccc1-c1ccc2c(c1)O[C@@H](CN(C)Cc1ccc3c(c1)OCO3)[C@@H](C)CN([C@@H](C)CO)S2(=O)=O under Cneo AK release: 6

The listing continues.
molecule | Yeast UUG start | miR122 inh | N-glyco inh | Cneo AK release | Statin myotox sup
CCS(=O)(=O)c1ncc(Cl)c(C(=O)Nc2ccc(C)cc2)n1 | -23 | . | -3 | 1 | 127*
Cc1ccc(CS(=O)(=O)c2ncc(Cl)c(C(=O)Nc3ccc(OC(F)F)cc3)n2)cc1 | -17 | 11 | 5 | -1 | 54
COc1cccc(S(=O)(=O)Nc2ccc3c(c2)OC[C@@H](C)NC[C@H](C)[C@@H](OC)CN(C)C3=O)c1 | 7 | -3[16.7 µM] | . | 98* | 13
CO[C@@H]1CN(C)C(=O)c2cc(NS(=O)(=O)C3CCCCC3)ccc2OC[C@H](C)NC[C@@H]1C | . | . | . | 86* | -2
CO[C@@H]1CN(C)C(=O)c2cc(NS(=O)(=O)c3ccc(C)cc3)ccc2OC[C@@H](C)N(C)C[C@@H]1C | 9 | 2[16.7 µM] | . | 139* | -7
CO[C@@H]1CN(C)C(=O)c2ccc(NS(=O)(=O)c3ccc(Oc4ccccc4)cc3)cc2OC[C@H](C)NC[C@H]1C | . | . | . | 99* | 0
CO[C@@H]1CN(C)C(=O)c2cc(NS(C)(=O)=O)ccc2OC[C@H](C)N(CC2CCOCC2)C[C@H]1C | . | . | . | . | 4
CN1C(=O)c2cc(NC(=O)C3CCCC3)ccc2OC[C@@H]2O[C@H](CC(=O)Nc3ccccc3)CC[C@@H]21 | 12 | 18[16.7 µM] | . | 3 | -39

Continuation.
molecule | Yeast UUG start | miR122 inh | N-glyco inh | Cneo AK release | Statin myotox sup
Cc1nn(C)cc1NC(=O)C[C@H]1CC[C@H]2[C@H](COc3ccc(NC(=O)NC(C)C)cc3C(=O)N2C)O1 | -12 | -8[16.7 µM] | . | 2 | -27
CO[C@@H]1CN(C)C(=O)c2cc(NS(=O)(=O)c3cccc(C)c3)ccc2OC[C@@H](C)NC[C@H]1C | 28 | 29[16.7 µM] | . | 104* | 6
Cc1ccc(S(=O)(=O)Nc2cccc(-c3cn4ccsc4n3)c2)cc1 | 2 | 142* | 4 | 2 | 8
Cc1cccc(S(=O)(=O)Nc2cccc(-c3cn4ccsc4n3)c2)c1 | -19 | 77 | -3 | -8 | 17
COc1ccc(NC(=O)Nc2ccc3c(c2)C(=O)N([C@H](C)CO)C[C@H](C)[C@H](CN(C)S(=O)(=O)c2ccc(OC)cc2)OCCCC[C@@H](C)O3)cc1 | -15 | -5[16.7 µM] | . | 0 | .
C/C(=N\NC(=O)c1ccccc1O)C1C(=O)c2ccccc2C1=O | -10 | 119* | -1 | -4 | -17
C/C(=N/NC(=O)c1cc2ccccc2cc1O)C1C(=O)c2ccccc2C1=O | -8 | 2 | 1 | 0 | -12
C[C@H]1CCCCO[C@H](CN(C)C(=O)CCC(F)(F)F)[C@@H](C)CN([C@@H](C)CO)C(=O)c2cc(NS(C)(=O)=O)ccc2O1 | 21 | 6[16.7 µM] | . | -2 | -14

Retrieved by structure from the list above, 2 records:
molecule | Yeast UUG start | miR122 inh | N-glyco inh | Cneo AK release | Statin myotox sup
Cc1ccc(S(=O)(=O)Nc2cccc(-c3cn4ccsc4n3)c2)cc1 | 2 | 142* | 4 | 2 | 8
C[C@@H]1CN([C@H](C)CO)C(=O)Cc2cc(NS(=O)(=O)c3cn(C)cn3)ccc2O[C@H]1CN(C)CC1CC1 | -8 | 7[16.7 µM] | . | -1 | 7

The listing continues.
molecule | Yeast UUG start | miR122 inh | N-glyco inh | Cneo AK release | Statin myotox sup
O=C(Cc1ccccc1)N1C[C@H]2[C@@H](c3ccccc31)[C@@H](CO)N2C(=O)C1CCCCC1 | 37 | 200*[16.7 µM] | . | -3 | -13
O=C(C1CCCCC1)N1C[C@H]2[C@@H](c3ccccc31)[C@@H](CO)N2C(=O)c1ccccc1 | -12 | 260*[16.7 µM] | . | -2 | -11
O=C(Cc1ccccc1)N1C[C@H]2[C@@H](c3ccccc31)[C@H](CO)N2C(=O)C1CCCCC1 | 17 | 30[16.7 µM] | . | -3 | 11
O=C(COc1ccccc1)Nc1nn[nH]n1 | -16 | 8 | 1 | -3 | 112*
O=C(COc1cccc(Oc2ccccc2)c1)Nc1ncccn1 | . | -2 | 1 | . | 107*
Cc1cc(NC(=O)COc2cccc(Oc3ccccc3)c2)no1 | -7 | 1 | 20 | -2 | 3
CN(c1ccc(C(=O)NCCSCc2ccco2)cc1)S(C)(=O)=O | -10 | 0 | 0 | 8 | -6

High-throughput results (PubChem BioAssay)
